In one test the test system is SiHa-NTR^puro. Briefly: 4-h exposure IC50 assay in NTR transfectant vs parental line. The format is cell-based, human. Particulars: 4-h exposure IC50 assays; after 4 weeks growth without puromycin.

In the case of `NC(=O)c1cc(N2CC2)c([N+](=O)[O-])cc1[N+](=O)[O-]` [compound 1, 5-(aziridin-1-yl)-2,4-dinitrobenzamide, reference compound], in the test on SiHa-NTR^puro, the “Sensitivity of SiHa-NTR^puro relative to the parental line” value came out at 440 fold. In addition, the “AA8/UV4 intra-experiment IC50 ratio” value with UV4 worked out at 22.1±5.2.

The values above are taken from publication PMC2409616 (British Journal of Cancer, 2004).
